What was measured:
[1] = target: T1, Neuronal acetylcholine receptor; alpha4/beta2 (Homo sapiens, UniProt P17787+P43681); assay: Agonist activity at human alpha4beta2 nAChR expressed in human SH-EP1 cells after 9.5 mins by 86Rb+ efflux assay; format: cell-based
In short: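 86Rb+ efflux: cells loaded with ~350,000 cpm 86Rb+ at least 4 h (typically overnight), rinsed with efflux buffer pH 7.4 (130 mM NaCl, 5.4 mM KCl, 2 mM CaCl2, 50 mM HEPES, 5 mM glucose). Test drug alone applied 9.5 min. Efflux normalized, after nonspecific subtraction, to specific efflux of fully efficacious carbamylcholine control; nonspecific defined with carbamylcholine plus mecamylamine; EC50 derived.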

The chains behind the UniProt entries cited, without tags or fusion partners. Where a name states a change or a piece, a line headed by the entry shows the natural chain unless it says otherwise.
UniProt P17787, whole entry: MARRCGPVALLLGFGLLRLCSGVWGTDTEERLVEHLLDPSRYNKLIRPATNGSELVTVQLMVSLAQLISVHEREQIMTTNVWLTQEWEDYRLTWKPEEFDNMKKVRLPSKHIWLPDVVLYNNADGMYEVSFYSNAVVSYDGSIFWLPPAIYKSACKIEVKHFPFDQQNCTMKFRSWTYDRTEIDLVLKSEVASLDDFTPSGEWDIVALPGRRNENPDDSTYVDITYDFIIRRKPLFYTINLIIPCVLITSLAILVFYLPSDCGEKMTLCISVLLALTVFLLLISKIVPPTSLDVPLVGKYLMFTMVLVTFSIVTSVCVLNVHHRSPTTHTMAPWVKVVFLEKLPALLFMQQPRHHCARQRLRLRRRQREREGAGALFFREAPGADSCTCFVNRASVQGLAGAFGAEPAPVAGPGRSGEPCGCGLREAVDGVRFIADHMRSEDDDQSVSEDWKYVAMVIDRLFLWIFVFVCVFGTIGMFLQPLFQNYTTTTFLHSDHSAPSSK
UniProt P43681: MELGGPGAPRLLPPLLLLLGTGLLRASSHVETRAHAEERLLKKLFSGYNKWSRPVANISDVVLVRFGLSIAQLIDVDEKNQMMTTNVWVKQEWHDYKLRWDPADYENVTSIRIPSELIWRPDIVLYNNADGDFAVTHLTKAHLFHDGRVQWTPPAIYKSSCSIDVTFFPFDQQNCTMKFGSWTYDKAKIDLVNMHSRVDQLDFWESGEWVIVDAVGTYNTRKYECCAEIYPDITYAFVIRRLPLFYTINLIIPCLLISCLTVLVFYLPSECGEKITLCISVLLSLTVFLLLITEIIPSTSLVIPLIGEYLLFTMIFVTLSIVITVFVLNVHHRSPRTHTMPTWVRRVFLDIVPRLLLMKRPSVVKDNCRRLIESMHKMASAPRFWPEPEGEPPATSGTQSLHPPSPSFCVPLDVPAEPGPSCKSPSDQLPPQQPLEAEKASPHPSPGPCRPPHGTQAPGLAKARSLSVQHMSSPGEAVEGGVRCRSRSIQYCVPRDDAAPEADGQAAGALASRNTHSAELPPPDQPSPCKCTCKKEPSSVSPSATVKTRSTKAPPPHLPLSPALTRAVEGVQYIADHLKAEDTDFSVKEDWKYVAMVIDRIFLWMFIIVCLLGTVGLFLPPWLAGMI
UniProt Q05941, whole entry: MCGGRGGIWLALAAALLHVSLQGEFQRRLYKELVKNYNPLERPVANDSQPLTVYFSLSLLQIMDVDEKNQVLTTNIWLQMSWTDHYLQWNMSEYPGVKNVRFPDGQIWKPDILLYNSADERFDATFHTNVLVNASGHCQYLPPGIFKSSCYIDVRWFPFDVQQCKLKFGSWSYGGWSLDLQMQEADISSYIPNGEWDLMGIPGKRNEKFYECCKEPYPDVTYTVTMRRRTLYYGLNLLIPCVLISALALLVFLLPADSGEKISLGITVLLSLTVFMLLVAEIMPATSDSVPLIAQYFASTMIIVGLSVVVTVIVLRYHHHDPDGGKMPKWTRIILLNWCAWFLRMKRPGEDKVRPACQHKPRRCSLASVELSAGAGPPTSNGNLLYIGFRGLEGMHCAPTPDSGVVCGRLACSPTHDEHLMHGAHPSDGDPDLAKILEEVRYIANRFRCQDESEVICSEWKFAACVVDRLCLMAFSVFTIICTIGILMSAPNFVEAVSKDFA
UniProt P04757, whole entry: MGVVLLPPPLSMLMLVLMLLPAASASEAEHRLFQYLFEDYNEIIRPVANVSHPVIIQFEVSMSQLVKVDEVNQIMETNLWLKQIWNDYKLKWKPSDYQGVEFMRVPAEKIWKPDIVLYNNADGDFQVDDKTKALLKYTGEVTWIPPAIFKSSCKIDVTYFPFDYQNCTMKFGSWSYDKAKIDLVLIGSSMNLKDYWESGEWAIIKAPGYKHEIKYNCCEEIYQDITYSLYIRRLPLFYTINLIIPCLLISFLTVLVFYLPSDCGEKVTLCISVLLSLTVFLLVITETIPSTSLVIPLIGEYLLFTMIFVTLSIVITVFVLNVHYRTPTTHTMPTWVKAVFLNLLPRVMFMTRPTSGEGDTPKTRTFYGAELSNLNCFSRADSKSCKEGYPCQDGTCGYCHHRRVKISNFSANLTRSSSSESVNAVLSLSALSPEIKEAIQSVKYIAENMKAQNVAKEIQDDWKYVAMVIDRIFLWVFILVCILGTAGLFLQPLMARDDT
UniProt P12392, whole entry: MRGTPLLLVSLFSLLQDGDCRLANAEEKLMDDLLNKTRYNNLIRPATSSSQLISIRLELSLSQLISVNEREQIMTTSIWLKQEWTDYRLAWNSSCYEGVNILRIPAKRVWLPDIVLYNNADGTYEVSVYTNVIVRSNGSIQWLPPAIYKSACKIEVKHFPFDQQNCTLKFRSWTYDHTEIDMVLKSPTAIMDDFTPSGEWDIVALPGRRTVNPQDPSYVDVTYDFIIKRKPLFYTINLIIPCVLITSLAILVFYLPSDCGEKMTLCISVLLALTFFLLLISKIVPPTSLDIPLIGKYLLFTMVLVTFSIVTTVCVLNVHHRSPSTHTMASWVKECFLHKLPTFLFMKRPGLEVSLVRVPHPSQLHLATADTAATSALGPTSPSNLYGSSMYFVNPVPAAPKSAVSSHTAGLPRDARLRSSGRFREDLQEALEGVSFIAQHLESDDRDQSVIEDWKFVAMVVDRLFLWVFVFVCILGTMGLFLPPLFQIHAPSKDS
UniProt P12389: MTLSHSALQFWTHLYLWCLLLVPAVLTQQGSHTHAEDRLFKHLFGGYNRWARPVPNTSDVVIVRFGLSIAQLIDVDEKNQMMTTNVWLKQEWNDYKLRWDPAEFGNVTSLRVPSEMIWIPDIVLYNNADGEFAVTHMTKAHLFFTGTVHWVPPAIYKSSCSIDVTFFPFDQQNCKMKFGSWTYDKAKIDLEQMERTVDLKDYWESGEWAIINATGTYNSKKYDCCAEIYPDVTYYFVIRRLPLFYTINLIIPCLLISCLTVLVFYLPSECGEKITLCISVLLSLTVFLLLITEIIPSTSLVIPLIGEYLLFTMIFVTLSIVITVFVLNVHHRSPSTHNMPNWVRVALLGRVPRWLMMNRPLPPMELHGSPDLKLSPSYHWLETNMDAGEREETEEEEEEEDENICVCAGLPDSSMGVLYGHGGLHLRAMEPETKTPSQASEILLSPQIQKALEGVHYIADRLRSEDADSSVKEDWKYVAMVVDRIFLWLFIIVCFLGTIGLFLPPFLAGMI

[2] = target: Neuronal acetylcholine receptor subunit alpha-7 (Rattus norvegicus) (UniProt Q05941); assay: Displacement of [3H]epibatidine from rat alpha7 nAChR at 10 uM by liquid scintillation counting
Rattus norvegicus = species on record: Rattus norvegicus; assay: Displacement of [3H]epibatidine from rat forebrain alpha7* nAChR at 10 uM by liquid scintillation counting
[3] = target: T1, Neuronal acetylcholine receptor; alpha4/beta2; assay: Antagonist activity at human alpha4beta2 expressed in human SH-EP1 cells assessed as reduction in carbamylcholine induced 86Rb+ efflux preincubated for 10 mins followed by carbamylcholine addition measured after 5 mins by Cherenkov counting; format: cell-based
In short: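 Same 86Rb+-loaded cells and pH 7.4 efflux buffer. Cells lysed in 0.1 M NaOH/0.1% SDS and Cerenkov counted. Specific efflux = total minus nonspecific (mecamylamine-blocked); inactivation IC50 derived from inhibition of carbamylcholine response.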

[4] = target: alpha3beta4 nAChR (neuronal acetylcholine receptor alpha3/beta4) (Rattus norvegicus, UniProt P04757+P12392); assay: Displacement of [3H]epibatidine from rat alpha3beta4 nAChR at 10 uM by liquid scintillation counting; conditions: probe [3H]epibatidine
[5] = target: Neuronal acetylcholine receptor; alpha2/beta4 (Rattus norvegicus) (UniProt P12389+P12392); conditions: 10 uM

SMILES	EC50 [1] [µM]	pEC50 ([1]; sh-ep1)	inhibition [2] [%]	inhibition (Rattus norvegicus) [%]	IC50 [3] [µM]	pIC50 ([3]; sh-ep1)	inhibition at 10 µM [4] [%]	inhibition [5] [%]
CN1CCCN(c2cncc(-c3cc(CCO)no3)c2)CC1	> 1	< 6	< 50	< 50	> 1	< 6		
COCC[C@@H]1C[C@H]1c1cncc(N2CCCNCC2)c1			< 50	< 50				
OCCc1cc(-c2cncc(N3CCCNCC3)c2)on1			< 50	< 50				
COCC[C@H]1C[C@@H]1c1cncc(N2C[C@@H]3C[C@H]2CN3)c1			< 50	< 50				
COCC[C@H]1C[C@@H]1c1cncc(N2CCCNCC2)c1			< 50	< 50				
COCC[C@@H]1C[C@H]1c1cncc(N2C[C@@H]3C[C@H]2CN3)c1			< 50	< 50			< 50	< 50
COCC[C@H]1C[C@@H]1c1cncc(N2CCCN(C)CC2)c1			< 50	< 50			< 50	< 50

From ChEMBL document CHEMBL3877245 (Eur J Med Chem, 2016)
